Results as given in ChEMBL document CHEMBL2029275, “Structure-activity relationship of a series of non peptidic RGD integrin antagonists targeting α5β1: part 2” (Bioorg Med Chem Lett, 2012).

Amino acid sequences for entries named in this document (tags omitted). Residues count along the entry.
UniProt P08648, 895-1049 limits assumed: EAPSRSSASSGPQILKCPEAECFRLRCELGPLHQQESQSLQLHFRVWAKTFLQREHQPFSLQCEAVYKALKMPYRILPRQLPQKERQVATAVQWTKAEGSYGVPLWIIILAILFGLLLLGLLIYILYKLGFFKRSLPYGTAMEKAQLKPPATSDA
UniProt P08648, 42-894 limits assumed: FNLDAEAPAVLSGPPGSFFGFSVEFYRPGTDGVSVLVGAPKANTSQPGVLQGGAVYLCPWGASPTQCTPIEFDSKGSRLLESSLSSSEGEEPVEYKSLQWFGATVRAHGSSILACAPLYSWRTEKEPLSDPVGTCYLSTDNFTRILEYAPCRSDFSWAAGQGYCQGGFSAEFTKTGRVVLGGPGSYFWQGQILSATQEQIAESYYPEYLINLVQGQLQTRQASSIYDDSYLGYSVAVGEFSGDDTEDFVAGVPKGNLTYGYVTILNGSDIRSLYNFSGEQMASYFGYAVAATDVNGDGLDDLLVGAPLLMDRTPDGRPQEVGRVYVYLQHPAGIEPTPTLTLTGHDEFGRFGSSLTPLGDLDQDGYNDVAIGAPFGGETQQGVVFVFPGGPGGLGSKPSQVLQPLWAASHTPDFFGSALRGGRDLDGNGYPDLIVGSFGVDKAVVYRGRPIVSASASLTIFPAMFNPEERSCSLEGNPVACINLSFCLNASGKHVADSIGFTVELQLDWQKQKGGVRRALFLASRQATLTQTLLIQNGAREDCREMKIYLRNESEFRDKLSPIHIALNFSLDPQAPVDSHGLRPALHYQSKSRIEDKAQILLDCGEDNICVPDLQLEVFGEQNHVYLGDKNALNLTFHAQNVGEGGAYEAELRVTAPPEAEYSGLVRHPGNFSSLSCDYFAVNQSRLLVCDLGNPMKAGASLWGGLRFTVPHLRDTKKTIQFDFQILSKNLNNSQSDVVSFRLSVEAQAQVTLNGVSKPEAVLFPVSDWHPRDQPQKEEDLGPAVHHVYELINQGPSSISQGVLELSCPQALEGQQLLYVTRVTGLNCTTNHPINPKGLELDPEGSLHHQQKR

Target: Integrin alpha-5/beta-1 (Homo sapiens, UniProt P05556+P08648)
Assay: Antagonist activity at integrin alpha5beta1 in human K562 cells assessed as inhibition of cell adhesion
Assay type: functional, cell-based

Q: With `CNc1cccc(CCOc2ccc(C[C@H](NC(=O)c3c(C)noc3C)C(=O)O)cc2)n1` as the compound, how does the IC50 read?
A: < 8 nM
